Measurements taken from US10927078B2, “Modulators of indoleamine 2,3-dioxygenase” (GLAXOSMITHKLINE INTELLECTUAL PROPERTY DEVELOPMENT LIMITED, priority 2017, dated 2021).

Chains of the proteins cited; added tags and fusions are not shown.
UniProt P14902, whole entry, looked up: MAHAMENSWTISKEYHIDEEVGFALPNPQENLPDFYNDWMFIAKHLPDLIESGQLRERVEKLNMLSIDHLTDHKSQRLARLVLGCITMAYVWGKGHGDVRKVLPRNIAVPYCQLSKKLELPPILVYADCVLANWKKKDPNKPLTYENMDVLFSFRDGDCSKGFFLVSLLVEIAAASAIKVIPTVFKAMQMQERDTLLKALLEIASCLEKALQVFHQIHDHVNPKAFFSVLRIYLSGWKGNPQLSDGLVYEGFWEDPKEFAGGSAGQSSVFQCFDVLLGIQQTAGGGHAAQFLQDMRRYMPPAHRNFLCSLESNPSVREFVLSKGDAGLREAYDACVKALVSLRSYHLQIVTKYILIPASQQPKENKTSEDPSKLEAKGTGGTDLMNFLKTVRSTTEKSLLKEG

Target: indoleamine 2, 3-dioxygenase (IDO1) (Homo sapiens, UniProt P14902)
Experiment: PBMC IDO1 assay (kynurenine via mass spectrometry)
Type: cell-based
Details: human PBMC stimulated with IFN-γ and LPS, 2 days, kynurenine by mass spectrometry; recorded as pIC50
Procedure: Compounds of the present invention were tested via high-throughput cellular assays utilizing detection of kynurenine via mass spectrometry and cytotoxicity as end-points. For the mass spectrometry and cytotoxicity assays, human peripheral blood mononuclear cells (PBMC) (PB003F; AllCells®, Alameda, Calif.) were stimulated with human interferon-γ (IFN-γ) (Sigma-Aldrich Corporation, St. Louis, Mo.) and lipopolysaccharide from Salmonella minnesota (LPS) (Invivogen, San Diego, Calif.) to induce the expression of indoleamine 2, 3-dioxygenase (IDO1). Compounds with IDO1 inhibitory properties decreased the amount of kynurenine produced by the cells via the tryptophan catabolic pathway. Cellular toxicity due to the effect of compound treatment was measured using CellTiter-Glo® reagent (CTG) (Promega Corporation, Madison, Wis.), which is based on luminescent detection of ATP, an indicator of metabolically active cells.
In preparation for the assays, test compounds were serially diluted 3-fold in DMSO from a typical top concentration of 5 mM and plated at 0.5 μL in 384-well, polystyrene, clear bottom, tissue culture treated plates with lids (Greiner Bio-One, Kremsmünster, Austria) to generate 11-point dose response curves. Low control wells (0% kynurenine or 100% cytotoxicity) contained either 0.5 μL of DMSO in the presence of unstimulated (-IFN-γ/-LPS) PBMCs for the mass spectrometry assay or 0.5 μL of DMSO in the absence of cells for the cytotoxicity assay, and high control wells (100% kynurenine or 0% cytotoxicity) contained 0.5 μL of DMSO in the presence of stimulated (+IFN-γ/+LPS) PBMCs for both the mass spectrometry and cytotoxicity assays.
Frozen stocks of PBMCs were washed and recovered in RPMI 1640 medium (Thermo Fisher Scientific, Inc., Waltham, Mass.) supplemented with 10% v/v heat-inactivated fetal bovine serum (FBS) (Thermo Fisher Scientific, Inc., Waltham, Mass.), and 1× penicillin-streptomycin antibiotic solution (Thermo Fisher Scientific, Inc., Waltham, Mass.). The cells were diluted to 1,000,000 cells/mL in the supplemented RPMI 1640 medium. 50 μL of either the cell suspension, for the mass spectrometry assay, or medium alone, for the cytotoxicity assay, were added to the low control wells, on the previously prepared 384-well compound plates, resulting in 50,000 cells/well or 0 cells/well respectively. IFN-γ and LPS were added to the remaining cell suspension at final concentrations of 100 ng/ml and 50 ng/ml respectively, and 50 μL of the stimulated cells were added to all remaining wells on the 384-well compound plates. The plates, with lids, were then placed in a 37° C., 5% CO2 humidified incubator for 2 days.
Following incubation, the 384-well plates were removed from the incubator and allowed to equilibrate to room temperature for 30 minutes. For the cytotoxicity assay, CellTiter-Glo® was prepared according to the manufacturer's instructions, and 40 μL were added to each plate well. After a twenty minute incubation at room temperature, luminescence was read on an EnVision® Multilabel Reader (PerkinElmer Inc., Waltham, Mass.). For the mass spectrometry assay, 10 μL of supernatant from each well of the compound-treated plates were added to 40 μL of acetonitrile, containing 10 μM of an internal standard for normalization, in 384-well, polypropylene, V-bottom plates (Greiner Bio-One, Kremsmünster, Austria) to extract the organic analytes. Following centrifugation at 2000 rpm for 10 minutes, 10 μL from each well of the acetonitrile extraction plates were added to 90 μL of sterile, distilled H2O in 384-well, polypropylene, V-bottom plates for analysis of kynurenine and the internal standard on the RapidFire 300 (Agilent Technologies, Santa Clara, Calif.) and 4000 QTRAP MS (SCIEX, Framingham, Mass.). MS data were integrated using Agilent Technologies' RapidFire Integrator software, and data were normalized for analysis as a ratio of kynurenine to the internal standard. […]

Cc1ccnc(C)c1OC(=O)N1CCC([C@H](NC(=O)c2ccc(Cl)s2)C2CC2)CC1
PBMC PXC50_: 8.8

CC(NC(=O)c1ccc(Br)cc1)C1CCN(C(=O)Oc2cccnc2F)CC1 (centres unmarked)
PBMC PXC50_: 6.9

Cc1ncccc1OC(=O)N1CCC(C(CC(C)C)NC(=O)c2ccc(Cl)s2)CC1 (centres unmarked)
PBMC PXC50_: 8.9

Cc1ncccc1OC(=O)N1CCC([C@H](NC(=O)c2ccc(Cl)s2)C2CC2)CC1
PBMC PXC50_: 8.5

Cc1ncccc1OC(=O)N1CCC(C(C)NC(=O)c2ccc(Br)cc2)CC1 (centres unmarked)
PBMC PXC50_: 7.1

O=C(NC(C1CC1)C1CCN(C(=O)Oc2cccnc2)CC1)c1ccc(F)cc1 (centres unmarked)
PBMC PXC50_: 6.2

Cc1ccc(C(=O)NC(CC(C)C)C2CCN(C(=O)Oc3cccnc3C)CC2)s1 (centres unmarked)
PBMC PXC50_: 9

Cc1ccc(C(=O)N[C@H](C2CC2)C2CCN(C(=O)Oc3cccnc3C)CC2)s1
PBMC PXC50_: 8.4
